# AlphaSeq binding of Ab-14 heavy chain variants to a spike HR2 peptide

Binding partner: SARS-CoV-2 spike HR2 peptide, sequence PDVDLGDISGINAS.

Each scFv is VH, a (GGGGS)3 linker, VL, as in the parent Ab-14, and differs from it in the CDRs of the heavy chain only.
VH: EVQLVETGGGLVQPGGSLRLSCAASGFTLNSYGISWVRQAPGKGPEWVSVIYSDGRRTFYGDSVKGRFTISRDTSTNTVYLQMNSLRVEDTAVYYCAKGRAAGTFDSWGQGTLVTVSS
VL: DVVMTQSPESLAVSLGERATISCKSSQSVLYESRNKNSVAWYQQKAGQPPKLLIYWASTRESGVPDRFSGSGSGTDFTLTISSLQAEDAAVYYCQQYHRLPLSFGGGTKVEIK

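The parent was found by panning a naive human phage display library on the peptide. The variants were designed computationally from a first round of random CDR variants and then made and measured. Group labels follow the data file (Ctrl: baseline library sampled from a position-specific scoring matrix, with some repeated check sequences; En: ensemble of fine-tuned language models; GP: Gaussian process model; GPLM: also part of the Gaussian process libraries; HC: hill climbing; Gen: genetic algorithm; Gibbs: Gibbs sampling; a sequence that several methods proposed may carry one label only). Affinity was read by AlphaSeq, a pooled yeast mating assay with surface-displayed partners. After mating in shaken culture at 30 °C for 16 h, diploids were selected and their barcode pairs sequenced. The ratio of observed to expected reads was calibrated, replicate by replicate, on BCL2-family standards whose Kd was known from biolayer interferometry. Mating was done six times.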

The parent's heavy chain CDRs are GFTLNSYGIS, VIYSDGRRTFYGDSVK, GRAAGTFDS; each variant's own CDRs replace them letter for letter. This list holds designs with at most six substitutions. Values are apparent Kd, the geometric mean of the replicates that gave a signal; lower means stronger binding. A pair that was not seen in any replicate is written "no signal"; this usually means weak binding, but a binder can also be missed. Nonspecific signal, from three strains lacking the peptide, appeared in 1% of pairings of all heavy chain designs, centred on 120 nM (5% of these signals below 7.0 nM); values are not corrected for it. Values of this round are not directly comparable with the first-round values of the same sequences. The authors' rule: three or more of the six replicates give a measured affinity, fewer mean a poor binder.

With GFDLNSYGIS | VIYSDGRRTFYGDSVK | GRAAGYFNS [GPLM_HC] the result was no signal (0 of 6 replicates). The variant GFTLNMYGIS | VIYSDGRRTFYGDSVK | GWAAGTFDS [Ctrl] gave no signal (0 of 6 replicates). For MFELNSYGIS | VIYADGRRTFYGDSVK | GQAAGTFDK [GP_Gibbs], the assay gave 110 nM (2 of 6 replicates). The variant GFELNSYGIS | VIYSDGRRTFYIDSVK | GNTAGTFDS [GP_Gen] gave 52 nM (6 of 6 replicates). The variant GFTLNEYGIS | VIYSDGRRTFYGDSVK | GRAAGKFMT [GP_HC] showed 2.2 nM (5 of 6 replicates). The variant GFNLNSYGIS | VIYSDGRRTFYGDSVK | GRSAGTFDS [GPLM_Gen] gave 7.1 nM (2 of 6 replicates). With GFSLNTYGIS | VIYSDGRRTFYKDSVK | GQAAGTFDS [GPLM_Gen] the result was 11 nM (1 of 6 replicates). The variant GFNLGSYGIS | VIYSDGRRTFYDDSVK | GRAAGTFDS [Ctrl] gave 13 nM (5 of 6 replicates). The variant GFQLNSYGIS | VIYSDGRRTFYADSVK | GKVAGTFDS [GP_Gen] showed 1.1 nM (6 of 6 replicates).

The variant GFTLNSYGIS | VIYSDGRRTFYQDSVK | GQVAGTFDS [GPLM_Gen] gave 10 nM (6 of 6 replicates). With GFTLNEYGIS | VIYSDGRRTFYGDSVK | GPAAGTFDR [GP_HC] the result was no signal (0 of 6 replicates). The variant GFSLNEYGIS | VIYSDGRRTFYGDAVK | GRTAGTFDS [GPLM_Gen] gave 1.8 nM (6 of 6 replicates). The variant GFTLNSYGIS | VIYSDGRRTFYGDSVK | GYAAGTFDS [Ctrl] showed 430 nM (5 of 6 replicates). For GFDLNSYGIS | VIYSDGRRTFYCDSVK | GREAGTFDT [GP_Gen], the assay gave 4.0 nM (6 of 6 replicates). The variant GFSLNDYGIS | VIYSDGRRTFYGDTVK | GRTAGTFDE [GP_Gibbs] gave no signal (0 of 6 replicates). The variant GFSLNSYGIS | VIYSDGRRTFYKDSVK | GQAAGTFDA [GPLM_Gibbs] gave 1.0 nM (1 of 6 replicates). With GFELNSYGIS | VIYSDGRRTFYSDSVK | GRNAGTFDS [GPLM_Gen] the result was 2.2 nM (6 of 6 replicates). The variant GFTLNSYGIS | VIYSDGRRTFYGDNVK | GRAAGTFSS [Ctrl] gave 650 pM (6 of 6 replicates).

With GFSLNSYGIS | VIYSDGRRTFYSDSVK | GNAAGTFDS [GPLM_Gen] the result was 810 pM (6 of 6 replicates). The variant GFTLNSYGIS | VIYSDGRRTFYTDSVK | GNEAGTFDS [GPLM_HC] showed 320 pM (6 of 6 replicates). The variant GFTINSYGIS | VIYADGHRTFYADSVK | GNAAGTFDS [Ctrl] gave 78 nM (4 of 6 replicates). The variant GFTINSYGIS | VIYSDGRRTFYSDSVK | GRQAGTFDS [GPLM_HC] gave 14 nM (6 of 6 replicates). The variant GFSLNSYGIS | VIYADGRRTFYGDSVK | GWAAGTFDS [GPLM_Gen] gave 1.3 nM (6 of 6 replicates). With GFDLNEYGIS | VIYSDGRRTFYGDSVK | GKTAGTFDS [GP_Gen] the result was 320 pM (6 of 6 replicates). With GFWLNSYGIS | VIYSDGRRTFYADSVK | GSAAGTFDS [GP_Gibbs] the result was 97 nM (3 of 6 replicates). The variant GFDLNSYGIS | VIYSDGRRTFYADMVK | GRTAGTFDS [GP_Gen] gave 6.9 nM (6 of 6 replicates). The variant GFNLNSYGIS | VIYSDGRRTFYGDQVK | GRTAGTFDS [GPLM_Gen] showed no signal (0 of 6 replicates).

The variant GNTLNSYGIS | VITSDGRRTFYGDSVK | GRAVGTFDL [Ctrl] showed 1.6 µM (1 of 6 replicates). With GFTLESYGIS | VIYSDGKRTFYGDSVK | GQAAGTFDS [GP_Gen] the result was 4.6 nM (4 of 6 replicates). With GFELNSYGIS | VIYSDGRRTFYGDQVK | GITAGTFDS [GP_Gibbs] the result was 6.3 nM (6 of 6 replicates). With GFTLNSYGIS | VIYSDGRRTQYGDSVK | GSNAGTFDS [Ctrl] the result was 78 nM (2 of 6 replicates). The variant GFQLNTYGIS | VIYSDGRRTFYVDSVK | GQAAGTFDS [GP_Gibbs] showed no signal (0 of 6 replicates). For GFELNSYGIS | VIYSDGRRTFYVDSVK | GQAAGTFDS [GPLM_Gen], the assay gave 25 nM (4 of 6 replicates). With GFDLNSYGIS | VIYSDGRRTFYEDSVK | GRQAGTFDS [GP_Gen] the result was 2.7 nM (6 of 6 replicates). The variant GFTLNSYGIS | VIYSDGRRTAYGDSVK | GRAAGQFDS [Ctrl] gave no signal (0 of 6 replicates). The variant GFDLNEYGIS | VIYADGRRTFYTDSVK | GANAGTFDS [En_HC] gave 430 pM (6 of 6 replicates).

With GFTLNEYGIS | VIYSDGRRTFYMDSVK | GRFAGTFDS [GPLM_HC] the result was 12 nM (6 of 6 replicates). The variant GFTLNSYGIS | VIYSDGRRTFYSDSVK | GQAGGTFDL [GPLM_HC] gave 11 nM (6 of 6 replicates). The variant MFTLESYGIS | VIYADGRRTFYGDSVK | GRAAGTFDS [GPLM_Gen] gave 44 nM (2 of 6 replicates). With GFSLNSYGIS | VIYSDGRRTFYSDSVK | NRAAGTFVN [Ctrl] the result was 130 nM (1 of 6 replicates). For GFSLNEYGIS | VIYSDGRRTFYQDKVK | GRTAGTFDS [GP_Gibbs], the assay gave 2.7 nM (6 of 6 replicates). With GFSLEKYGIS | VIYSDGRRTFYGDSVK | GRTAGTFDS [GP_Gibbs] the result was 920 pM (6 of 6 replicates). The variant GFDLNEYGIS | VIYADGRRTFYIDSVK | GTAAGTFDL [En_HC] showed 490 pM (6 of 6 replicates). The variant GFTLNEYGIS | VIYSDGIRTFYTDSVK | GRFAGTFDS [GPLM_HC] showed 1.3 nM (5 of 6 replicates). With GFPLNSYGIS | VIYSDGRRTFYGDSVK | GRAACTFCS [Ctrl] the result was no signal (0 of 6 replicates).

With GFTLNSYGIS | VIYSDGRRTFYGDSVK | GKIAGTFDK [GP_Gibbs] the result was 9.4 nM (4 of 6 replicates).

The opening 7 entries, copied out:

For GFDLNSYGIS | VIYSDGRRTFYGDSVK | GRAAGYFNS [GPLM_HC], the assay gave no signal (0 of 6 replicates).
For GFTLNMYGIS | VIYSDGRRTFYGDSVK | GWAAGTFDS [Ctrl], the assay gave no signal (0 of 6 replicates).
For MFELNSYGIS | VIYADGRRTFYGDSVK | GQAAGTFDK [GP_Gibbs], the assay gave 110 nM (2 of 6 replicates).
For GFELNSYGIS | VIYSDGRRTFYIDSVK | GNTAGTFDS [GP_Gen], the assay gave 52 nM (6 of 6 replicates).
For GFTLNEYGIS | VIYSDGRRTFYGDSVK | GRAAGKFMT [GP_HC], the assay gave 2.2 nM (5 of 6 replicates).
For GFNLNSYGIS | VIYSDGRRTFYGDSVK | GRSAGTFDS [GPLM_Gen], the assay gave 7.1 nM (2 of 6 replicates).
For GFSLNTYGIS | VIYSDGRRTFYKDSVK | GQAAGTFDS [GPLM_Gen], the assay gave 11 nM (1 of 6 replicates).

From the AlphaSeq antibody data of Li et al. 2023 (doi:10.1038/s41467-023-39022-2), copy in the FLAb collection.